Laboratory results reported in patent US20240174727A1, “LONG-ACTING NATRIURETIC PEPTIDES AND USES THEREOF” (Eli Lilly and Company, priority 2022, published 2024).

Target: T1, human NPRA (Homo sapiens, UniProt P16066)
T1 construct: Full-Length cDNA Cloning and Generation of Cell Lines Overexpressing Natriuretic Peptide Receptors (NPRs); expressed in transfected cells; host or cells: Jump-in T-Rex HEK293 cells, pJTI R4 CMV-TO MCS pA vector, tetracycline induction
T1 sequence (P16066 33-1061): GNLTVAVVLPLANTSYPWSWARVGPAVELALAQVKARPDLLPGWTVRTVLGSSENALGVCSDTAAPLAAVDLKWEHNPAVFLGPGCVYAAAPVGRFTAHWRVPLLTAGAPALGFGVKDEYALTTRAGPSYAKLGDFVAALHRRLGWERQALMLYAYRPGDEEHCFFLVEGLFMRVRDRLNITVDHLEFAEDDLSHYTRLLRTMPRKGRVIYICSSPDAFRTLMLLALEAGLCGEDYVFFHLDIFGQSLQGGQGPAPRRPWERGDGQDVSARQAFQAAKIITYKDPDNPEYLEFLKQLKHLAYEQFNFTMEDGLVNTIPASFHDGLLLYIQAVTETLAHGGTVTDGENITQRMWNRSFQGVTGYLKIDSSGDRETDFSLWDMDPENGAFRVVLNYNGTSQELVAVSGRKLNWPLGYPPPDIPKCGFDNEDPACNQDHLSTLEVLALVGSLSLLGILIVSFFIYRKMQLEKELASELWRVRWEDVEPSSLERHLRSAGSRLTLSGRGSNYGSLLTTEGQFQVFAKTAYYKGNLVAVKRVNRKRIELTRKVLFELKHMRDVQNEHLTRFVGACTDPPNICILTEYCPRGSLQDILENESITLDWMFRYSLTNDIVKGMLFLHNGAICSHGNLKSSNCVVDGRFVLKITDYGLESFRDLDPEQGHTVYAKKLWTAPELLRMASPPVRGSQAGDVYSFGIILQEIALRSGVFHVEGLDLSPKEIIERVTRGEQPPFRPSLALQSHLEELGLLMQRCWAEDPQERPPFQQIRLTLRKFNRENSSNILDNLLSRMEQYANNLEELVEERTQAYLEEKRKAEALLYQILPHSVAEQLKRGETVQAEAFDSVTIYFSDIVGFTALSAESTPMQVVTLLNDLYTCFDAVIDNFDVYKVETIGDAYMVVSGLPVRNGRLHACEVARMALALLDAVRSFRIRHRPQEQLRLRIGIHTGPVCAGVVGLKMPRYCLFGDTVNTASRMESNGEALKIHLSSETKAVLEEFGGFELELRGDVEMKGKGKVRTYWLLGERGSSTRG
Assay: Human NPRA cGMP activity assay (HTRF) in HEK293 cells overexpressing NPRA
Format: cell-based
Experimental: All sequences were verified by full-length sequencing performed by ACGT DNA Sequencing Services (Wheeling, IL). The target cDNA was cloned into pJTI R4 CMV-TO MCS pA vector and then co-transfected with pJT1R4 Int vector into Jump-in™ T-Rex™ HEK293 cells for mammalian inducible expression using Jump-in™ T-Rex™ HEK293 kit and Lipofectamine LTX and Plus Reagent following manufacturer's protocols, as briefly described below.
Jump-in™ T-Rex™ HEK293 cells were plated in a BioCOAT® poly-D-lysine coated 6-well plate (Becton Dickinson, cat no. 354413) at 1 million cells/well in 2 mL culture medium and incubated for 18 h at 37° C. and 5% CO2 to 50-70% confluence. A cDNA mix was made in a 50 mL tube by adding 1.5 μg target cDNA, 1.5 μg pJT1R4 Int vector, 3 μL Plus Reagent, and 300 μL Opti-MEM I sequentially into the tube. A reagent mix was made in a separate 50 mL tube by adding 7.5 μL Lipofectamine LTX into 300 μL Opti-MEM I. The mixtures were incubated for 5 min at room temperature. The cDNA mix was then transferred into the reagent mix, mixed well, and incubated for additional 30 min at room temperature. A 500 μL of cDNA/Lipofectamine complex was then transferred to the wells of the cell plate in which the culture medium was changed to 2 mL of transfection medium containing DMEM with 4.5 g/L D-glucose supplemented with 10% FBS-HI and 20 mM HEPES. Transfected cells were cultured for 48 h in an incubator at 37° C. and 5% CO2. A subclone or pool from each overexpressing cell line was maintained in culture medium with the addition of 2 mg/mL G418 sulfate for the clone selection based on its built-in resistance to G418 sulfate for at least 3 weeks with medium changed every 2-3 days.
NPRs were overexpressed in T-Rex™ HEK293 cells following the induction with 300 ng/mL tetracycline in culture medium for 48 h. Induced cell lines in an exponential growth phase were treated with 0.05% trypsin-EDTA for a few seconds at room temperature, harvested in cell medium containing FBS to neutralize the trypsin, counted, and cryopreserved at the density of 2 million cells/mL in cell preservation solution containing FBS-HI with 5% DMSO. Cryopreserved cells were stored at −80° C. for a few days prior to transferring to a liquid nitrogen tank. Induced cell lines were then used for suspension assays to measure the activity of polypeptides to stimulate cGMP production in cGMP assays or for the preparation of cell membranes to measure the binding activity of polypeptides in competitive radioligand binding assays, as described below.
Test polypeptides were added starting at 10 μM concentration and at 10-fold decreasing concentrations to obtain 8-point concentration-response curves (i.e., 10 μM to 1 pM). The quantity of cGMP generated was detected using HTRF® technology and normalized to maximum amount produced by 100 nM amidated rat ANP and the minimum amount produced by assay buffer. Detailed steps are outlined below.
Stock solutions of test polypeptides (2 mM) dissolved in DMSO were first diluted 100-fold in assay buffer containing HBSS with Ca^2+ and Mg^2+, 5 mM HEPES, 0.5 mM IBMX, and 0.1% BSA or 0.1% casein (pH 7.4). The polypeptides were further serially diluted in 1:10 dilution steps in assay buffer containing 0.1% BSA or 0.1% casein to generate 8-point 2× working stock solutions ranging from 20 μM to […].
A 10 μL cell suspension containing 4000 cells was plated in Costar® half-area white opaque 96-well plates (Corning, cat no. 3693). Then 10 μL of assay buffer (basal activity), 200 nM of amidated rat ANP (maximum activity) or 2× working stock solutions of test polypeptides were transferred into the plate. Final concentration of DMSO in each well was 0.5%. The plate was shaken for 15 sec and then incubated for 40 min at room temperature.
The cGMP generated was measured using cGMP kit following the manufacturer's directions, as described below.

[1] = cGMP Assay (EC50, pM) w/BSA hNPRA, assay buffer with 0.1% BSA
[2] = cGMP Assay (EC50, pM) w/Casein hNPRA, assay buffer with 0.1% casein

SMILES	EC50 [1] [pM]	EC50 [2] [pM]
CC[C@H](C)[C@@H]1NC(=O)[C@H](CCCNC(=N)N)NC(=O)[C@H](CC(=O)O)NC(=O)[C@H]([C@@H](C)CC)NC(=O)[C@H](CCCNC(=N)N)NC(=O)CNC(=O)CNC(=O)[C@H](Cc2ccccc2)NC(=O)[C@@H](NC(=O)[C@H](CO)NC(=O)[C@H](CO)NC(=O)[C@H](CCCNC(=N)N)NC(=O)CCNC(=O)[C@H](CCCCN)NC(=O)[C@H](CCC(=O)O)NC(=O)CCOCCOCCOCCOCCOCCOCCOCCOCCOCCOCCOCCOCCOCCOCCOCCOCCOCCOCCOCCOCCOCCOCCOCCOCCNC(=O)CNC(=O)[C@H](CCCCN)NC(=O)[C@H](CCC(=O)O)NC(=O)[C@H](CCCCN)NC(=O)[C@H](CCC(=O)O)NC(=O)[C@H](CCCCN)NC(=O)[C@H](CCC(=O)O)NC(=O)CC[C@H](NC(=O)CCCCCCCCCCCCCCCCCCC(=O)O)C(=O)O)CSCSC[C@@H](C(=O)N2CCC[C@H]2C(=O)N[C@@H](CO)C(=O)N[C@@H](Cc2ccccc2)C(=O)N[C@@H](CCCNC(=N)N)C(=O)N[C@@H](Cc2c[nH]cn2)C(=O)NCC(=O)NCC(=O)N[C@@H](CCCCN)C(=O)N[C@@H](CO)C(=O)N[C@@H](CO)C(=O)NCC(=O)N[C@@H](C)C(=O)N2CCC[C@H]2C(=O)N2CCC[C@H]2C(=O)N2CCC[C@H]2C(=O)N[C@@H](CO)C(N)=O)NC(=O)CNC(=O)[C@H](CC(C)C)NC(=O)CNC(=O)[C@H](CO)NC(=O)[C@H](Cc2ccc(O)cc2)NC(=O)[C@H](Cc2c[nH]cn2)NC(=O)CNC1=O [Example 78]	19700	–
CC[C@H](C)[C@@H]1NC(=O)[C@H](CCCNC(=N)N)NC(=O)[C@H](CC(=O)O)NC(=O)[C@H]([C@@H](C)CC)NC(=O)[C@H](CCCNC(=N)N)NC(=O)CNC(=O)CNC(=O)[C@H](Cc2ccccc2)NC(=O)[C@@H](NC(=O)[C@H](CO)NC(=O)[C@H](CO)NC(=O)[C@H](CCCNC(=N)N)NC(=O)[C@H](CCCNC(=N)N)NC(=O)[C@H](Cc2ccncc2)NC(=O)[C@H](CO)NC(=O)COCCOCCNC(=O)COCCOCCNC(=O)COCCOCCNC(=O)COCCOCCNC(=O)COCCOCCNC(=O)COCCOCCNC(=O)CNC(=O)[C@H](CCCCN)NC(=O)[C@H](CCC(=O)O)NC(=O)[C@H](CCCCN)NC(=O)[C@H](CCC(=O)O)NC(=O)[C@H](CCCCN)NC(=O)[C@H](CCC(=O)O)NC(=O)CC[C@H](NC(=O)CCCCCCCCCCCCCCCCCCC(=O)O)C(=O)O)CSCSC[C@@H](C(=O)N2CCC[C@H]2C(=O)N[C@@H](CO)C(=O)N[C@@H](Cc2ccccc2)C(=O)N[C@@H](CCCNC(=N)N)C(=O)N[C@@H](Cc2c[nH]cn2)C(=O)NCC(=O)NCC(=O)N2CCC[C@H]2C(=O)N2CCC[C@H]2C(=O)N[C@@H](CO)C(=O)NC(C)(C)C(=O)N[C@@H](CCCCN)C(=O)N2CCC[C@H]2C(=O)N2CCC[C@H]2C(=O)N2CCC[C@H]2C(=O)N[C@@H](CCCCN)C(N)=O)NC(=O)CNC(=O)[C@H](CC(C)C)NC(=O)CNC(=O)[C@H](CO)NC(=O)[C@H](Cc2ccc(O)cc2)NC(=O)[C@H](Cc2c[nH]cn2)NC(=O)CNC1=O [Example 97]	–	720
CC[C@H](C)[C@@H]1NC(=O)[C@H](CCCNC(=N)N)NC(=O)[C@H](CC(=O)O)NC(=O)[C@H]([C@@H](C)CC)NC(=O)[C@H](CCCNC(=N)N)NC(=O)[C@H](CCCCN)NC(=O)CNC(=O)[C@H](Cc2ccccc2)NC(=O)[C@@H](NC(=O)[C@H](CO)NC(=O)[C@H](CO)NC(=O)[C@H](CCCNC(=N)N)NC(=O)CCNC(=O)[C@H](CCCCN)NC(=O)[C@H](CCC(=O)O)NC(=O)CCOCCOCCOCCOCCOCCOCCOCCOCCOCCOCCOCCOCCOCCOCCOCCOCCOCCOCCOCCOCCOCCOCCOCCOCCNC(=O)CNC(=O)[C@H](CCCCN)NC(=O)[C@H](CCC(=O)O)NC(=O)[C@H](CCCCN)NC(=O)[C@H](CCC(=O)O)NC(=O)[C@H](CCCCN)NC(=O)[C@H](CCC(=O)O)NC(=O)CC[C@H](NC(=O)CCCCCCCCCCCCCCCCCCC(=O)O)C(=O)O)CSCSC[C@@H](C(=O)N2CCC[C@H]2C(=O)N[C@@H](CO)C(=O)N[C@@H](Cc2ccccc2)C(=O)N[C@@H](CCCNC(=N)N)C(=O)N[C@@H](Cc2c[nH]cn2)C(=O)NCC(=O)NCC(=O)N[C@@H](CCCCN)C(=O)N[C@@H](CO)C(=O)N[C@@H](CO)C(=O)NCC(=O)N[C@@H](C)C(=O)N2CCC[C@H]2C(=O)N2CCC[C@H]2C(=O)N2CCC[C@H]2C(=O)N[C@@H](CO)C(N)=O)NC(=O)CNC(=O)[C@H](CC(C)C)NC(=O)CNC(=O)[C@H](CO)NC(=O)[C@H](Cc2ccc(O)cc2)NC(=O)[C@H](Cc2c[nH]cn2)NC(=O)CNC1=O [Example 102]	3490	–
CC[C@H](C)[C@@H]1NC(=O)[C@H](CCCNC(=N)N)NC(=O)[C@H](CC(=O)O)NC(=O)[C@H]([C@@H](C)CC)NC(=O)[C@H](CCCNC(=N)N)NC(=O)CNC(=O)CNC(=O)[C@H](Cc2ccccc2)NC(=O)[C@@H](NC(=O)[C@H](CO)NC(=O)[C@H](CO)NC(=O)[C@H](CCCNC(=N)N)NC(=O)CCNC(=O)[C@H](Cc2ccncc2)NC(=O)[C@H](CO)NC(=O)COCCOCCNC(=O)COCCOCCNC(=O)COCCOCCNC(=O)COCCOCCNC(=O)COCCOCCNC(=O)COCCOCCNC(=O)CNC(=O)[C@H](CCCCN)NC(=O)[C@H](CCC(=O)O)NC(=O)[C@H](CCCCN)NC(=O)[C@H](CCC(=O)O)NC(=O)[C@H](CCCCN)NC(=O)[C@H](CCC(=O)O)NC(=O)CC[C@H](NC(=O)CCCCCCCCCCCCCCCCCCC(=O)O)C(=O)O)CSCSC[C@@H](C(=O)N2CCC[C@H]2C(=O)N[C@@H](CO)C(=O)N[C@@H](Cc2ccccc2)C(=O)N[C@@H](CCCNC(=N)N)C(=O)N[C@@H](Cc2c[nH]cn2)C(=O)NCC(=O)N[C@@H](CO)C(=O)N2CCC[C@H]2C(=O)N[C@@H](CO)C(=O)N[C@@H](CO)C(=O)NCC(=O)N[C@@H](C)C(=O)N2CCC[C@H]2C(=O)N2CCC[C@H]2C(=O)N2CCC[C@H]2C(=O)N[C@@H](CO)C(N)=O)NC(=O)CNC(=O)[C@H](CC(C)C)NC(=O)CNC(=O)[C@H](CO)NC(=O)[C@H](Cc2ccc(O)cc2)NC(=O)[C@H](Cc2c[nH]cn2)NC(=O)CNC1=O [Example 111]	–	1530
